Assay [1] has as its target T1, EP3 receptor (Homo sapiens, UniProt P43115).
T1 construct: purchased Millipore HTS092M
T1 sequence (P43115 1-390): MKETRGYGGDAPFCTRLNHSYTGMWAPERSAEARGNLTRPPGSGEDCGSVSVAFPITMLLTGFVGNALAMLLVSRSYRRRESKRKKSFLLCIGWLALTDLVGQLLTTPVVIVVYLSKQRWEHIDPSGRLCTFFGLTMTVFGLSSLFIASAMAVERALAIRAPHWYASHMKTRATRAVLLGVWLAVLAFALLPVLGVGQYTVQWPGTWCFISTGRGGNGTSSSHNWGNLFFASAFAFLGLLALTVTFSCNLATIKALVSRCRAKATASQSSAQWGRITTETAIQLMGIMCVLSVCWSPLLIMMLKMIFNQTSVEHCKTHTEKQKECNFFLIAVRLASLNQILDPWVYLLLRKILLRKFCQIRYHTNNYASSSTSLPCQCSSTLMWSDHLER
The experiment in a line: CHO cell cAMP assay (forskolin and sulprostone stimulated, HTRF). It counts as cell-based. The conditions noted are these: CHO cells; sulprostone 700 nM (EC80) and FSK 2 μM (EC70), 37° C. for 30 minutes; read-out: CHO_cAMP IC50. On the procedure:
For detection, a homogeneous competitive immunoassay (Time Resolved Fluorescence Energy Transfer (hTR-FRET)) was used.
Cells (6K cells per well) were plated in Poly-D-Lysine coated plates the day before the assay was to be run and were incubated at 37° C. […] At the start of the assay the buffer was removed from the cells and replaced with buffer containing test compound(s). Sulprostone at an EC80 dose (700 nM) and FSK at an EC70 dose (2 μM) were added to initiate the reaction (37° C. for 30 minutes).
FSK increases cAMP production and sulprostone decreases cAMP production produced by FSK. In this assay, EP3 antagonists will increase the cAMP to the level of cAMP generated by FSK alone.
Approximately one hour later the plates were read on an Envision (Perkin Elmer) in HTRF mode.
NSP, NSN, NSsample were converted to nM cAMP using the following equation: […]
IC50 values were determined from a […] (Hill equation) of a single 11-point compound dosing.
On the technique in general: cAMP levels reflect the balance of adenylyl cyclase and phosphodiesterase activity.

For assay [2], the target named is T1, EP3 receptor. The assay can be described thus: [3H]-PGE2 binding assay (EP3 competition binding). Here is the method:
EP3 competition binding was determined using the following materials and experimental conditions:
Beads=Perkin Elmer RPNQ0001
EP3 membrane=Millipore HTS092M
Membrane concentration=2 μg/well
Beads concentration=0.25 mg/well
[3H]-PGE2=2 nM; DMSO—0.1%
Binding buffer=50 mM Tris, 10 mM MgCl2, 1 mM • EDTA, PH 7.4.
The binding buffer was removed from refrigeration (@ 4° C.) and allowed to warm to room temperature. Test compound (@ stock concentration of […] in DMSO) was serial dilutes (1:3) with 100% DMSO using Echo plate. Diluted test compound (30 nL) was dispensed to the 384-well assay plate (using Echo 550 Labcyte System). To each well was then added assay buffer (5 μl) and each well was spun. Beads were weighed out, dissolved in assay buffer to a concentration of 0.25 mg/15 μl. Original membrane was diluted with assay buffer to a concentration of 2 μg/5 μl. […] To each test well were then added diluted [3H]-PGE2 (5 μl), diluted membrane (5 μl), and dissolved beads (15 μl). The plate was equilibrated at room temperature on a plate shaker for 2 hours and then read with a TOPCOUNT scintillation plate reader. Results were analyzed using a Prism program with non-linear regression, one-site fit for Ki.

Broadly, the IC50 is the concentration needed to halve the response being measured. By Ki is commonly meant the dissociation constant of the complex between target and ligand, obtained from inhibition or displacement. Low readings indicate higher affinity, high ones lower affinity.

With `CCn1ncc2c(F)cc(-c3ccc(C(/C=C4\OC(=O)NC4=O)C4CCCC4)c(=O)[nH]3)cc21` (centres unmarked) [compound 130, 5-(2-cyclopentyl-2-(6-(1-ethyl-4-fluoro-1H-indazol-6-yl)-2-oxo-1,2-dihydropyridin-3-yl)ethylidene)-oxazolidine-2,4-dione], the IC50 in assay [1] is 72 nM. This compound also showed a Ki in assay [2] of 12 nM.

Source of the values: patent US10336701B2, “Pyridin-2-one derivatives of formula (II) useful as EP3 receptor antagonists” (Janssen Pharmaceutica NV, priority 2017, dated 2019).
